{"source": "paper PMC3762770", "about": "“Small Molecule Suppressors of Drosophila Kinesin Deficiency Rescue Motor Axon Development in a Zebrafish Model of Spinal Muscular Atrophy” (PLoS ONE, 2013)", "proteins": {"B1": {"name": "GSK-3β (Homo sapiens) (protein)", "chain": "MSGRPRTTSFAESCKPVQQPSAFGSMKVSRDKDGSKVTTVVATPGQGPDRPQEVSYTDTKVIGNGSFGVVYQAKLCDSGELVAIKKVLQDKRFKNRELQIMRKLDHCNIVRLRYFFYSSGEKKDEVYLNLVLDYVPETVYRVARHYSRAKQTLPVIYVKLYMYQLFRSLAYIHSFGICHRDIKPQNLLLDPDTAVLKLCDFGSAKQLVRGEPNVSYICSRYYRAPELIFGATDYTSSIDVWSAGCVLAELLLGQPIFPGDSGVDQLVEIIKVLGTPTREQIREMNPNYTEFKFPQIKAHPWTKVFRPRTPPEAIALCSRLLEYTPTARLTPLEACAHSFFDELRDPNVKLPNGRDTPALFNFTTQELSSNPPLATILIPPHARIQAAASTPTNATAASDANTGDRGQTNNAASASASNST", "notes": "N-terminally His-tagged protein expressed in Sf9 cells (NP_002084.2)"}}, "substrate": "Nc1ncnc2c1ncn2[C@@H]1O[C@H](COP(=O)(O)OP(=O)(O)OP(=O)(O)O)[C@@H](O)[C@H]1O", "test": "enzyme kinetics (Km) in radiometric kinase assay", "assay_type": "biochemical, Homo sapiens"}
{"protein": "B1", "values": [{"measurement": "Km", "result": "24 ± 4.5", "unit": "µM"}]}
